Sequences of proteins named here, by UniProt entry; tags and fusion partners are left off. A change or cut given only in a name is not applied to a line headed by its entry. Residues count along the entry.
UniProt Q9QYJ6: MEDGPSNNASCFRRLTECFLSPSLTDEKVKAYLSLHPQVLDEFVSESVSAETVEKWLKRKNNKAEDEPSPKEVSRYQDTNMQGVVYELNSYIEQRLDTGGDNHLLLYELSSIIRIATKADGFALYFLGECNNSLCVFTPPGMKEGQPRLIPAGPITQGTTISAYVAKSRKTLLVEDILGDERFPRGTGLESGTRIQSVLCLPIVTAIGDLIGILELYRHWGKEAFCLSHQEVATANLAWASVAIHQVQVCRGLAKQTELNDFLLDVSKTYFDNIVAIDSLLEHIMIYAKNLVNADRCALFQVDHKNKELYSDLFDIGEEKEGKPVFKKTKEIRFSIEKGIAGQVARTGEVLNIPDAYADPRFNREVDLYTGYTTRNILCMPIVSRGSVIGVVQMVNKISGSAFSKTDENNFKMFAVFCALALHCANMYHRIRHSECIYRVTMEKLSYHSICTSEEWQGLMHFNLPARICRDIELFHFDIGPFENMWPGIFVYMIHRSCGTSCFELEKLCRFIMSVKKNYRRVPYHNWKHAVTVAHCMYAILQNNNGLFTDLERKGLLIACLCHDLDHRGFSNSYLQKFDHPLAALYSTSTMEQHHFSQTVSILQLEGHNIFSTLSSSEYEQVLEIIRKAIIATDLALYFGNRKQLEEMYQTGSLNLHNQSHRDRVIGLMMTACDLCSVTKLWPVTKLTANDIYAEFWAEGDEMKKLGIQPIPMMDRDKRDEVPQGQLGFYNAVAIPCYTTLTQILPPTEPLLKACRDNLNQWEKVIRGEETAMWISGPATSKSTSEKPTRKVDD
UniProt Q9Y233, 267-1055: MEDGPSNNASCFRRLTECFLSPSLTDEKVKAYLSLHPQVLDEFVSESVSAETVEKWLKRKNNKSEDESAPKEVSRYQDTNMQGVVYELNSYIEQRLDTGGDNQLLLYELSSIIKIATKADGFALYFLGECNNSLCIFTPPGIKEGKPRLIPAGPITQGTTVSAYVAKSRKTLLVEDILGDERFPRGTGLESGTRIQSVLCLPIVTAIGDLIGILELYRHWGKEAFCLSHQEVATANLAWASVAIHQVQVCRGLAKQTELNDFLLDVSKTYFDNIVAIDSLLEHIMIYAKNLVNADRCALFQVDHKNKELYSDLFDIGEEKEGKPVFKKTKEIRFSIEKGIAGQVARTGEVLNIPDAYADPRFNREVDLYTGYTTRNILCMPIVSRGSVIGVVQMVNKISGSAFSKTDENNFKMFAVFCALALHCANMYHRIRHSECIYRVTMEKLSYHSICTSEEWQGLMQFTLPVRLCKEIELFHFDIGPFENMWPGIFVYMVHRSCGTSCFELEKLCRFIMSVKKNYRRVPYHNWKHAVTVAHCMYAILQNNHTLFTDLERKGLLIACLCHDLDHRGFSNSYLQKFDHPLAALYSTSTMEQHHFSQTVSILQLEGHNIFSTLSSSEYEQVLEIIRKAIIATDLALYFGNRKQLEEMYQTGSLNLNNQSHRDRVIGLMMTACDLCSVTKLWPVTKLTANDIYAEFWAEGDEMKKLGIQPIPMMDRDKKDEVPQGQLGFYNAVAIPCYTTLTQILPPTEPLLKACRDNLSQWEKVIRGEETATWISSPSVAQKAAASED

In patent US9193736B2, “PDE 10a inhibitors for the treatment of type II diabetes” (Janssen Pharmaceutica, NV, priority 2013, dated 2015):

What was measured:
[1] = target: Rat recombinant PDE10a (rPDE10a) (Rattus norvegicus (Rat), UniProt Q9QYJ6); experiment: In vitro assay PDE10a: rat recombinant PDE10a SPA with 3H-cAMP substrate, IC50; format: biochemical; conditions: 60 nM cAMP, read-out: rPDE10a2 IC50
Procedure: In Vitro Assay PDE10a Rat recombinant PDE10a (rPDE10a) was expressed in Sf9 cells using a recombinant rPDE10a baculovirus construct. Cells were harvested after 48 h of infection and the rPDE10a protein was purified by metal chelate chromatography on Ni-sepharose 6FF. Tested compounds were dissolved and diluted in 100% DMSO to a concentration 100 fold of the final concentration in the assay. […] The reaction was incubated for 60 min at rt. After incubation, the reaction was stopped with 20 μL of 17.8 mg/mL PDE SPA beads. […] For blank values the enzyme was omitted from the reaction and replaced by incubation buffer. […] A best fit curve was fitted by a minimum sum of squares method to the plot of % of control value subtracted with blank value versus compound concentration and the half maximal inhibitory concentration (IC50) value was derived from this curve.

[2] = target: Human recombinant PDE10A2 (Homo sapiens (Human), UniProt Q9Y233); experiment: In vitro hPDE10a: human recombinant PDE10A2 scintillation proximity assay, IC50; format: biochemical; conditions: human recombinant PDE10A2, SPA, 60 nM cAMP; read-out: hPDE10a2 IC50
Procedure: In Vitro hPDE10a […] Cells were harvested and the phosphodiesterase protein was purified by metal chelate chromatography on Ni-sepharose 6FF. The affinity of the compounds of Formula (I) for phophodiesterases (PDE) was measured by a scintillation proximity assay (SPA). PDE Yttrium Silicate SPA beads allow PDE activity to be measured by direct binding of the primary phosphate groups of non-cyclic AMP or GMP to the beads via a complex iron chelation mechanism. The amount of bound tritiated product ([^3H]-AMP) is measured by liquid scintillation counting. The compounds were dissolved and diluted in 100% DMSO in polystyrene plates to a concentration of 100-fold the final concentration in the assay. […] After incubation, the reaction was stopped with 20 μL of stop solution, consisting of PDE SPA beads (17.8 mg beads/mL in 18 mM zinc sulphate). […] To measure the low control, no enzyme was added to the reaction mixture. Data were calculated as the percentage of inhibition of total activity measured in the absence of test compound (% control). […] For compounds tested more than once, the data points were aggregated.

Molecule	IC50 [1]	IC50 [2]
O=C(O)c1ccc(-c2c(/C=C/c3ccc4c(n3)CCCC4)nc3c(N4CCOCC4)ccnn23)cn1 [Cpd 107, (E)-5-(8-morpholino-2-(2-(5,6,7,8-tetrahydroquinolin-2-yl)vinyl)imidazo[1,2-b]pyridazin-3-yl)picolinic acid trifluoroacetic acid salt]	16 nM	
2-[(E)-2-(6-Chloro-8-morpholin-4-ylimidazo[1,2-b]pyridazin-2-yl)ethenyl]-Nethylsulfonyl)quinoline-4-carboxamide [Cpd 127]	16 nM	< 1 nM

Counter-ions that a name gives are not always drawn.
